The record followed here is ChEMBL document CHEMBL4354879, “Bioisosteric Discovery of NPA101.3, a Second-Generation RET/VEGFR2 Inhibitor Optimized for Single-Agent Polypharmacology” (J Med Chem, 2020).

SMILES strings stand for the structures. Where only a bound is given, the exact number is not on record here.

For this test, the species on record is Homo sapiens. The test is described as follows: Selectivity ratio of IC50 for human ERG expressed in HEK293 cells to IC50 for recombinant human GST-tagged RET cytoplasmic domain (658 to 1114 residues) expressed in baculovirus expression system.

As for `CC(C)(C)c1cc(NC(=O)Cc2ccc(-n3cnc4cc(-c5ccc(S(C)(=O)=O)cc5)ccc43)cc2)no1`, the Ratio IC50 was > 7000.
